Molecules are shown by their SMILES.

In the assay the test system is Adrenergic receptor beta-1/beta-2 (Cavia porcellus). In words: Selectivity ratio of compound measured as Potency ratio of beta-2 receptor to that of potency ratio of beta-1. It is filed as protein assay.

As for `O=[N+]([O-])c1cc(CC2NCCc3cc(O)c(O)cc32)ccc1O` (stereo unspecified), the Selectivity ratio is 5.5.

These data come from ChEMBL document CHEMBL1130381, “Synthesis and evaluation of trimetoquinol derivatives: novel thromboxane A2/prostaglandin H2 antagonists with diminished beta-adrenergic agonist activity” (J Med Chem, 1997).
